Apparent affinities of Ab-14 variants for a coronavirus HR2 peptide

From the AlphaSeq antibody data of Engelhart et al. 2022 (doi:10.1038/s41597-022-01779-4), copy in the FLAb collection.

Antigen: PDVDLGDISGINAS, a 14-residue peptide of the SARS-CoV-2 spike HR2 region.

The variants keep the heavy chain, the linker and the frameworks of Ab-14 (scFv order VH, three GGGGS repeats, VL).
VH: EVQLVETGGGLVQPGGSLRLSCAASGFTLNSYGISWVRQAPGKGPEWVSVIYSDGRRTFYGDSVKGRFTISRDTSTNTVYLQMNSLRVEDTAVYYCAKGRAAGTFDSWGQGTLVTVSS
VL: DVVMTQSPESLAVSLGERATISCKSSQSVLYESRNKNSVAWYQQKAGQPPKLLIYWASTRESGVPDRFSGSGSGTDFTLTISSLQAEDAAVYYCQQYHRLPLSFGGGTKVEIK

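The starting antibody came from a phage panning campaign against this peptide. The library (AAYL50) carries one to three amino acid substitutions per variant, with no insertions or deletions. The assay is AlphaSeq: two haploid yeast populations carry antibody and antigen on their surface. After mating in shaken culture at 30 °C for 16 h, diploids were selected and their barcode pairs sequenced. Scores were corrected for input abundance and mapped to Kd with protein pairs of known affinity run in the same pool. There are three technical replicates.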

Variants are written as CDR1, CDR2 and CDR3 of the light chain (limits as in the source). Parent: KSSQSVLYESRNKNSVA, WASTRES, QQYHRLPLS. Every variant below is changed at S62 of the VL (sequential numbering). The Kd shown is the geometric mean over detected replicates; a lower Kd is a better binder. An entry "nd" has no value in the source: the pair was not observed among the diploids in any replicate. This suggests poor binding but is not conclusive. As a blank, each scFv also met three strains without target: over library AAYL50, 18% of these pairings were detected, typically at 15 µM and seldom below 970 nM.

For KSSQSVLYESRNKDSVA | WASTREK | QQYHRLPLL, the assay gave 31 nM (3 of 3 replicates). With KSSSSKLYESRNKNSVA | WASTREV | QQYHRLPLS the result was 15 nM (3 of 3 replicates). With KSSQSVLQESRNKNSVA | WASTREF | QNYHRLPLS the result was 23 nM (3 of 3 replicates). With KSSNSVLYESRNKNSVM | WASTREG | QQYHRLPLS the result was 1.0 µM (1 of 3 replicates). With YSSQPVLYESRNKNSVA | WASTREE | QQYHRLPLS the result was 320 nM (3 of 3 replicates).

The variant KSSQSVEYESRNKNSVA | WASTREK | QQYVRLPLS gave 6.8 nM (3 of 3 replicates). With KSSQSVLYESMNKNSVA | WASTREG | QQYHRDPLS the result was 430 µM (1 of 3 replicates). The variant KASQSVLYESRNKNSVA | WASTGED | QQYHRLPLS gave 1.4 µM (3 of 3 replicates). With KSSQSVLYESRNKNSVA | WASTRED | QRYHRLHLS the result was nd (0 of 3 replicates). For KSSQSVLYESRNKNSVA | WASKRWM | QQYHRLPLS, the assay gave 280 nM (3 of 3 replicates).

The variant KSSQSVLYESRNPNSVA | WASTREW | QQYHRLPLC showed 58 nM (1 of 3 replicates). With KSSQSVLSESRNKNSVA | WASTRSA | QQYHRLPLS the result was 6.3 nM (3 of 3 replicates). For KPSQSVLYESRNKNSVA | WASTREH | QQYHRLGLS, the assay gave 1.0 µM (2 of 3 replicates). The variant KNSQSVLYESRNKNSVA | WASTREY | QQYHRLPYS gave nd (0 of 3 replicates). With KSSQSVLYESRNKNSVA | WASTRET | QQTHRLPLS the result was nd (0 of 3 replicates).

The variant KSSQHVLYESRNKWSVA | WASTREN | QQYHRLPLS gave 7.2 µM (3 of 3 replicates). The variant KSSQSVLYESQNKNSVA | WASEREM | QQYHRLPLS showed 2.4 nM (3 of 3 replicates). For KSSQSVLYESRNKNSVA | WASTREE | QQYPRDPLS, the assay gave 510 nM (1 of 3 replicates). With KSSQKVLYESRNKNSVA | WASTREP | QQYHRLPLS the result was 12 nM (3 of 3 replicates). The variant KSSGSVLYESRHKNSVA | WASTRET | QQYHRLPLS showed 13 nM (3 of 3 replicates).

The variant KSSQIVLYESRNKNSVA | WASTREC | QQYHRWPLS showed 430 nM (3 of 3 replicates). The variant KSSQSVLYESRNKNSVA | FASCREA | QQYHRLPLS gave nd (0 of 3 replicates). The variant KSSRSVLWESRNKNSVA | WASTREG | QQYHRLPLS gave 160 nM (3 of 3 replicates). The variant LSSRSVLYESRNKNSVA | WASTREY | QQYHRLPLS showed 160 nM (3 of 3 replicates). With KSSQSVLWESRNKNSVA | WASTREA | QQYWRLPLS the result was 84 nM (3 of 3 replicates).

The variant KSDQSVLYESRNKNSVM | WASTREK | QQYHRLPLS showed nd (0 of 3 replicates). The variant KSSQSVLYKSRNKNSVP | WASTREQ | QQYHRLPLS showed 45 nM (3 of 3 replicates). The variant KSSQSVLYESRNKNSVA | WASAREW | QQYHRLPLS gave 760 µM (1 of 3 replicates). The variant KSSQELLYESRNKNSVA | WASTREE | QQYHRLPLS showed 1.6 nM (3 of 3 replicates). For KSSQSVLYESRDKNSVA | WASTREC | QQYHRLPLS, the assay gave 15 nM (3 of 3 replicates).

For ISSQSVLYESRNKNCVA | WASTRED | QQYHRLPLS, the assay gave 620 nM (3 of 3 replicates). With KSSQSVLYESRNKNSVA | WASTREF | QQYTRLPQS the result was nd (0 of 3 replicates). With KSNQSVLYESRNKNSVA | WASTREF | QQYHRLPWS the result was 20 nM (3 of 3 replicates). The variant KSSQSVLYESRNKNSVA | WAFTRDK | QQYHRLPLS showed 71 nM (3 of 3 replicates). With KSSQSSLYESRNKNSVA | WASPREA | QQYHRLPLS the result was 71 µM (3 of 3 replicates).

With KSSQSQLYESRNKNPVA | WASTREI | QQYHRLPLS the result was 630 nM (3 of 3 replicates). The variant KSSQSVKYEKRNKNSVA | WASTREF | QQYHRLPLS gave 1.1 µM (2 of 3 replicates). The variant KSSQSVVYESRNKNSVA | WASTREA | QQYHRLPLS showed 5.7 nM (3 of 3 replicates). With ASSQAVLYESRNKNSVA | WASTREQ | QQYHRLPLS the result was 6.6 nM (3 of 3 replicates). The variant KSSQSVCYESRNKGSVA | WASTREP | QQYHRLPLS gave 9.7 nM (3 of 3 replicates).

With KSSQSVAYDSRNKNSVA | WASTREY | QQYHRLPLS the result was 4.6 nM (3 of 3 replicates). With KSSQSTLYESRNKNSQA | WASTRER | QQYHRLPLS the result was 17 µM (3 of 3 replicates). With KSSQSVLAESRNKNSVA | WASTRET | QEYHRLPLS the result was 5.5 nM (3 of 3 replicates). For KSSQSVLYESRNKNSVA | WASTREN | QQYHRLPLS, the assay gave 3.6 nM (3 of 3 replicates). The variant KSSQSVLYESRNKNSVA | WASTRWE | QQYHRLPLS showed 4.5 nM (3 of 3 replicates).

With KSSQSVLYETRNKNSVA | WASTRET | QQYHRLFLS the result was 4.1 µM (2 of 3 replicates).

A selection of 4 entries from above:

CDR-L1,CDR-L2,CDR-L3,Kd,replicates with signal
KSSQSVLYKSRNKNSVP,WASTREQ,QQYHRLPLS,45 nM,3 of 3
LSSRSVLYESRNKNSVA,WASTREY,QQYHRLPLS,160 nM,3 of 3
KSSQSVLYESRNKNSVA,WASAREW,QQYHRLPLS,760 µM,1 of 3
KSSQSVLYESRNKNSVA,WASTRED,QRYHRLHLS,nd,0 of 3